These are literature values, as cited in patent publication US7553853B2, “Solid-state montelukast” (Synthon BV, priority 2003, dated 2009).

The conditions of data set [1]: cited from earlier work.
For data set [2] the following is noted: a precipitate may be formed after certain time; cited from earlier work.

With “Montelukast monosodium salt [Montelukast sodium]”, in data set [1] (known property of the powder), the hygroscopicity entry is “hygroscopic”. The water absorbed entry in data set [1] (known solid sodium salt) was “up to 3 equivalents of water”. Further, in data set [2], the “stability in aqueous solutions” value is listed as “not stable”.
